Source: ChEMBL document CHEMBL5154915 (J Med Chem, 2022)

Organism: Cavia porcellus
Assay: Activation of SERCA2a activity in guinea pig heart sarcoplasmic reticulum microsomal fraction assessed as increase in SERCA2a-Ca2+ affinity by measuring Kd of calcium at 100 nM preincubated for 5 mins followed by addition of 32-P-ATP measured after 15 mins relative to control
Type: subcellular
Conditions: time 20.0 min
Summary of the method: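 Cardiac SR microsomes were prepared from healthy guinea pig hearts and contain SERCA2a plus PLN. Compounds were tested at 10 and 100 nM. ATPase was measured as 32P-ATP release at 37 °C, taking the cyclopiazonic acid (10 μM)-sensitive part, across Ca2+ 100–1500 nM. KdCa and Vmax were derived by curve fitting. N = 4–11; one-way RM ANOVA with Tukey or paired t-test.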

Compound | Activity [%]
C[C@]12CC[C@H](CCCC(=O)O)C[C@@H]1[C@@H](O)C[C@@H]1[C@@H]2CC[C@]2(C)C(=O)CC[C@@H]12 | -26
C[C@]12CC[C@H](CCCC(=O)O)C[C@@H]1[C@H](O)C[C@@H]1[C@@H]2CC[C@]2(C)C(=O)CC[C@@H]12 | -26
